# Experimental data: PubChem BioAssay AID1347084 (National Center for Advancing Translational Sciences (NCATS), 2019)
# This is a selection; strong and weak results do not stand in their true shares. Results filed as inconclusive are left out. Calls of active or inactive are those of the source. Calls come from the whole dose curve.
# Experiment: qHTS for Inhibitors of the Functional Ribonucleoprotein Complex (vRNP) of Lymphocytic Choriomeningitis Arenaviruses (LCMV): LCMV Confirmatory Screen - GLuc reporter signal
# Conditions: LCMV minigenome vRNP, Gaussia luciferase reporter
smiles,measurement,value
CCC(=O)N(c1ccccc1)C1(COC)CCN(CCc2cccs2)CC1,Potency,active: 49.8 µM
